Our source for the IC50 values is ChEMBL document CHEMBL2010688, “Tri- and tetrasubstituted pyrazole derivates: regioisomerism switches activity from p38MAP kinase to important cancer kinases” (J Med Chem, 2012).

The chains behind the UniProt entries cited, without tags or fusion partners. Residues count along the entry.
UniProt P00533, 25-1210 L858R limits assumed: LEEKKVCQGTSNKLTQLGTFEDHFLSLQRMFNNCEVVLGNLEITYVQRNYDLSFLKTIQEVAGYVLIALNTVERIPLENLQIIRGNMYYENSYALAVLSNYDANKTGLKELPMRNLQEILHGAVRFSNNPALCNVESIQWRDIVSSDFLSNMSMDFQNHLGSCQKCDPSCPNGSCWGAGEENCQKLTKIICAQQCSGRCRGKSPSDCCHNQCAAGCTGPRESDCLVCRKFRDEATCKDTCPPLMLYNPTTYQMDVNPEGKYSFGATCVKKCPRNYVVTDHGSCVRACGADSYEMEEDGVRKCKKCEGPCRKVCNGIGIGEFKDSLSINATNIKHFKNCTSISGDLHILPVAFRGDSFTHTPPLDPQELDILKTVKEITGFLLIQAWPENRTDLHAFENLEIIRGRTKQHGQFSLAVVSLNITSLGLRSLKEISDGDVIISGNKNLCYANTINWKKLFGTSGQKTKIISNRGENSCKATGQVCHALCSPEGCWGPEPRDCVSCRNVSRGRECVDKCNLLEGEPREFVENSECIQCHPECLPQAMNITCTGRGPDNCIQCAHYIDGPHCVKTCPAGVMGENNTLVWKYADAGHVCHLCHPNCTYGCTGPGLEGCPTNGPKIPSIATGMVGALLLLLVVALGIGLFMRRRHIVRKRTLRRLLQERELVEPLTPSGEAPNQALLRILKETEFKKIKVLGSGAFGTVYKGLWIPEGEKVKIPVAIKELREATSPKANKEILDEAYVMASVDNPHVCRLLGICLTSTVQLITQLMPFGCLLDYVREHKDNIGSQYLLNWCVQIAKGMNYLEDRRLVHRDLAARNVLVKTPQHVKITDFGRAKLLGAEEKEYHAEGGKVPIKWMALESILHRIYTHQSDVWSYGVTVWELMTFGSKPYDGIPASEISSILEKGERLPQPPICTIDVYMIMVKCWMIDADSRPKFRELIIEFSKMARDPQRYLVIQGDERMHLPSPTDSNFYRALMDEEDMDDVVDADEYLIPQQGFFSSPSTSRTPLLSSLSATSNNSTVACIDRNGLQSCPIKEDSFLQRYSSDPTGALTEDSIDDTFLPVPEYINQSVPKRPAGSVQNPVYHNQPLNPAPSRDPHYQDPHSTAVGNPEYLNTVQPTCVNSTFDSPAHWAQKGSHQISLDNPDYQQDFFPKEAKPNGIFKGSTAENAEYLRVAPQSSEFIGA
UniProt P00533, whole entry: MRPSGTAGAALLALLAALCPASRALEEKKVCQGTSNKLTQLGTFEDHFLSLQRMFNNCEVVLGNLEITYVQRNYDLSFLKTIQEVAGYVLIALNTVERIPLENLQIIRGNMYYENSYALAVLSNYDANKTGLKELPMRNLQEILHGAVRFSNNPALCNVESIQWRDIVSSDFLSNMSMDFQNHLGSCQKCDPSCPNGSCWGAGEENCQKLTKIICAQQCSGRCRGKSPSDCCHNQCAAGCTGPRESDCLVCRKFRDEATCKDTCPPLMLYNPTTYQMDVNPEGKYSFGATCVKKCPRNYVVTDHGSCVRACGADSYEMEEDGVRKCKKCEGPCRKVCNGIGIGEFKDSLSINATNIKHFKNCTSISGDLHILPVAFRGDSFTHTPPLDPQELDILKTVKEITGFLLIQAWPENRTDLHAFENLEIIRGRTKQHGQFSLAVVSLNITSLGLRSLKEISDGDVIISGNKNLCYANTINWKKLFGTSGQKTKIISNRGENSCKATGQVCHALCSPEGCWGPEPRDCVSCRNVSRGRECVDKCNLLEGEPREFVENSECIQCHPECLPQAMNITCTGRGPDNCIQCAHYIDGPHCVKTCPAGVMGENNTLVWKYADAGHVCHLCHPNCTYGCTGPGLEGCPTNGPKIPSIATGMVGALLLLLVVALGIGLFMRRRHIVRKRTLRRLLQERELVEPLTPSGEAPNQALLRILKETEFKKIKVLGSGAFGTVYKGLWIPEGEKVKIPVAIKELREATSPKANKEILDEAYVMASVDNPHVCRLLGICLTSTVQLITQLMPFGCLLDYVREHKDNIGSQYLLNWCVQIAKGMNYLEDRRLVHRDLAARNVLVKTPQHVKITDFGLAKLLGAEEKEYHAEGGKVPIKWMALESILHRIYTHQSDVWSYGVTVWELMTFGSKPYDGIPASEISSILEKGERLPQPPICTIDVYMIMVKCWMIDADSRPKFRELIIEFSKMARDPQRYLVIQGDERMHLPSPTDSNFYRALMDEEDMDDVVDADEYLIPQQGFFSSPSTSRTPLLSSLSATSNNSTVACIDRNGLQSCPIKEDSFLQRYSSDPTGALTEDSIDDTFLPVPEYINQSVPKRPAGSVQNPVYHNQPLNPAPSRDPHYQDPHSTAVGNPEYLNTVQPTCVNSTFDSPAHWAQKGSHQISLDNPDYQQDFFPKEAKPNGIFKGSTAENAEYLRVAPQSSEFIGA

Each structure is given as a SMILES string.

Usually IC50 stands for the midpoint of a concentration-inhibition curve.

Test [1] deals with Epidermal growth factor receptor (Homo sapiens, UniProt P00533, L858R). Put plainly: Inhibition of EGFR L858R mutant using poly(Glu,Tyr) as substrate assessed as [33P-gamma]-ATP incorporation after 60 mins by microplate scintillation counting. The test is classed as protein assay.
Test [2] concerns the target Epidermal growth factor receptor (Homo sapiens, UniProt P00533). Put plainly: Inhibition of wild type EGFR using poly(Glu,Tyr) as substrate assessed as [33P-gamma]-ATP incorporation after 60 mins by microplate scintillation counting.

Take `Nc1c(-c2ccc(F)cc2)c(-c2ccncc2)nn1-c1c(Cl)cc(Cl)cc1Cl`: the IC50 in test [1] stood at 31 nM; in test [2], 113 nM.
